Like-named read-outs stand apart in the source and are kept apart here. Blank lines part the entries; values can stand above or below the molecule they belong to.
How the values were obtained:
XIAP-BIR3 [1] = target: T1, XIAP-BIR3 (Homo sapiens, UniProt P98170); experiment: fluorescence polarization competition assay, XIAP-BIR3; format: binding
T1 construct: X-IAP BIR3 (amino acids residues 241-356); made in house; host or cells: Escherichia coli BL21 (DE3)
Protocol: (§1) The apparent Kd values can be determined from the EC50 values.
(§2) The vectors pET15b-XIAPBIR2C202AC218G, pET15b-XIAPBIR3, and pET15b-MLIAPBIR were introduced into Escherichia coli strain BL21 (DE3). Overnight cultures were diluted 1:100 and grown at 30° C. in LB media with […] to an A600 of 0.5-0.7 with vigorous shaking. Isopropyl b-D-thiogalactoside (IPTG) was added to a final concentration of 1 mM and cultures were grown for 4 hours at 30° C. One litre of frozen cell pellet was resuspended in 100 ml Buffer A (50 mM Tris [pH 8.0], 300 mM NaCl, 5 mM b-mercaptoethanol, 0.5 mM PMSF, 2 mM benzamidine) with 5 mM imidazole and placed on ice for 30 minutes. Cells were lysed by homogenizing followed by repeated passes through a microfluidizer. Lysate was cleared by centrifugation at 15,000 rpm for 30 minutes. The supernatant was loaded onto a Ni-agarose column (Qiagen), washed with 10 column volumes Buffer A with 10 mM imidazole, and eluted with 10 column volumes Buffer A with 300 mM imidazole. Fractions containing BIR protein were pooled. Final concentrations of 5 mM DTT and 100 mM zinc acetate were added. The pool was concentrated and loaded on a Superdex 75™ (Pharmacia) sizing column. Protein eluted over one column volume into 50 mM Tris 8.0, 300 mM NaCl, 0.5 mM PMSF, 2 mM benzamidine, 5 mM DTT, 50 mM zinc acetate, 1 mM sodium azide. Fractions containing BIR protein were pooled and dialyzed against 4 changes of buffer containing 50 mM Tris (pH 8.0), 120 mM NaCl, 5 mM DTT, 0.5 mM PMSF, 2 mM benzamidine, 50 mM zinc acetate, 1 mM sodium azide. Protein was concentrated and stored at −80° C. for further characterization.
(§3) The apparent Kd values were determined from the EC50 values. […] Samples were read after a 10-minute incubation.

The chains behind the UniProt entries cited, without tags or fusion partners. Residues count along the entry.
UniProt P98170, 241-356: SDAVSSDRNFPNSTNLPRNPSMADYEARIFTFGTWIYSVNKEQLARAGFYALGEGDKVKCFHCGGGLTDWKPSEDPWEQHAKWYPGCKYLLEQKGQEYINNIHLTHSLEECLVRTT
UniProt P98170, 124-240 C202A/C213G: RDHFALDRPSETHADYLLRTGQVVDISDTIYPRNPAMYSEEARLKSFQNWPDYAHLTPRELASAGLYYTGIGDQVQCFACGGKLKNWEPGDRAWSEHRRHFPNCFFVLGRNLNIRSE

ML-IAP-BIR [2] = target: T2, ML-IAP-BIR (Homo sapiens, UniProt Q96CA5); experiment: fluorescence polarization competition assay, ML-IAP-BIR; format: binding; conditions: for specificity for ML-IAP-BIR relative to XIAP-BIR3, in words: substitution at position 4′
T2 construct: made in house; host or cells: Escherichia coli BL21 (DE3)
T2 sequence (Q96CA5 63-179): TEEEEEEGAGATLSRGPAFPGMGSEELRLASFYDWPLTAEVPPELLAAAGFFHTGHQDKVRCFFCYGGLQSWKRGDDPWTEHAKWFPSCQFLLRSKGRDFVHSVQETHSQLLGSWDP
Protocol: as §1, §2, §3

XIAP-BIR2 [3] = target: T3, XIAP-BIR2 (Homo sapiens, UniProt P98170, C202A/C213G); experiment: fluorescence polarization competition assay, XIAP-BIR2; format: binding
T3 construct: X-IAP BIR2 (amino acid residues 124-240 with mutations C202A and C213G); made in house; host or cells: Escherichia coli BL21 (DE3)
Protocol: as §1
as §2, with “Protein eluted over one column volume into 50 mM Tris 8.0, 300 mM NaCl, 0.5 mM PMSF, 2 mM benzamidine, 5 mM DTT, 50 mM zinc acetate, 1 mM sodium azide. Fractions containing BIR protein were pooled and dialyzed against 4 changes of buffer containing 50 mM Tris (pH 8.0), 120 mM NaCl, 5 mM DTT, 0.5 mM PMSF, 2 mM benzamidine, 50 mM zinc acetate, 1 mM sodium azide. Protein was concentrated and stored at −80° C. for further characterization.” left out
as §3

ML-IAP-BIR [4] = target: T4, ML-IAP-BIR (human, UniProt Q96CA5 63-179); experiment: fluorescence polarization competition, SMAC-FAM probe
T4 construct: range 63-179; Expressed in E. coli from pET15b and purified on Ni-agarose; also called BIR domain of ML-IAP
T4 sequence (looked up): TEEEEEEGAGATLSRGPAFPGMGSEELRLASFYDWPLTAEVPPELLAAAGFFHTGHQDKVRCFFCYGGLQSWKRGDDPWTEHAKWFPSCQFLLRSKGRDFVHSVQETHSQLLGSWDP

XIAP-BIR2 [5] = target: T5, XIAP-BIR2 (human, UniProt P98170 124-240); experiment: as above
T5 construct: range 124-240; The text says C213G, the vector name reads pET15b-XIAPBIR2C202AC218G; Expressed in E. coli from pET15b

XIAP-BIR3 [6] = target: T6, XIAP-BIR3 (human, UniProt P98170 241-356); experiment: fluorescence polarization, BIR protein titrated into the probe; apparent Kd from EC50
T6 construct: range 241-356; Expressed in E. coli from pET15b and purified on Ni-agarose

ML-IAP-BIR [7] = target: T4, ML-IAP-BIR; experiment: as above
XIAP-BIR3 [8] = target: T6, XIAP-BIR3; experiment: fluorescence polarization competition, SMAC-FAM or Hid-FAM probe
ML-IAP-BIR [9] = target: T4, ML-IAP-BIR; experiment: as above
XIAP-BIR2 [10] = target: T5, XIAP-BIR2; experiment: as above
XIAP-BIR3 [11] = target: T6, XIAP-BIR3; experiment: fluorescence polarization competition, SMAC-FAM probe
[12] = Table 4, P4 amino acid/phenylethylamine scan, Hid-FAM probe

Ki (XIAP-BIR3 [1]; [12]): 0.85 µM
Molecule: CC(C)[C@H](NC(=O)[C@H](C)N)C(=O)N1CCC[C@H]1C(=O)NC[C@H](O)c1ccccc1 [AVPX33]

Ki (XIAP-BIR3 [1]; [12]): 0.68 µM
Molecule: CC(C)[C@H](NC(=O)[C@H](C)N)C(=O)N1CCC[C@H]1C(=O)NCCc1cccc(Cl)c1 [AVPX39]

Ki (XIAP-BIR3 [1]; [12]): 1.6 µM
Molecule: CC(C)[C@H](NC(=O)[C@H](C)N)C(=O)N1CCC[C@H]1C(=O)N[C@H](CO)[C@H](O)c1ccccc1 [AVPX27]

Ki (XIAP-BIR3 [1]; [12]): 0.84 µM
Molecule: CC(C)[C@H](NC(=O)[C@H](C)N)C(=O)N1CCC[C@H]1C(=O)NCCc1cccc(F)c1 [AVPX37]

Ki (XIAP-BIR3 [1]; [12]): 0.69 µM
Molecule: CC(CNC(=O)[C@@H]1CCCN1C(=O)[C@@H](NC(=O)[C@H](C)N)C(C)C)c1ccccc1 (stereo partly shown) [AVPX31]

Molecule: CC(C)[C@H](NC(=O)[C@H](C)N)C(=O)N1CCC[C@H]1C(=O)NCC(c1ccccc1)c1ccccc1 [AVPX24]
Ki (XIAP-BIR3 [1]; [12]): 0.28 µM | improvement in affinity for ML-IAP-BIR relative to AVPF (ML-IAP-BIR [2]; ratio of Ki): 3 fold | improvement in affinity for ML-IAP-BIR relative to AVPI (ML-IAP-BIR [2]; ratio of Ki): 10 fold | specificity for ML-IAP-BIR relative to XIAP-BIR3 (ML-IAP-BIR [2]; ratio of Ki): ~9 fold

Ki (XIAP-BIR3 [1]; [12]): 0.46 µM
Molecule: COC[C@H](Cc1ccccc1)NC(=O)[C@@H]1CCCN1C(=O)[C@@H](NC(=O)[C@H](C)N)C(C)C [AVPX38]

specificity for ML-IAP-BIR relative to XIAP-BIR3, in words (ML-IAP-BIR [2]): improved specificity
Molecule: CC(C)[C@H](NC(=O)[C@H](C)N)C(=O)N1CCC[C@H]1C(=O)N[C@@H](Cc1ccc(N)cc1)C(=O)N[C@@H](C)C(=O)N[C@@H](CCC(N)=O)C(=O)N[C@@H](CCCCN)C(=O)N[C@@H](CO)C(=O)N[C@@H](CCC(=O)O)C(=O)O [AVPX4AQKSE]

Ki (XIAP-BIR3 [1]; [12]): 3.3 µM
Molecule: COc1ccc(Br)cc1CCNC(=O)[C@@H]1CCCN1C(=O)[C@@H](NC(=O)[C@H](C)N)C(C)C [AVPX36]

specificity for ML-IAP-BIR relative to XIAP-BIR3 (ML-IAP-BIR [2]; ratio of Ki): ~7 fold
Molecule: CC(C)[C@H](NC(=O)[C@H](C)N)C(=O)N1CCC[C@H]1C(=O)N[C@@H](CCc1ccccc1)C(=O)N[C@@H](C)C(=O)N[C@@H](CCC(N)=O)C(=O)N[C@@H](CCCCN)C(=O)N[C@@H](CO)C(=O)N[C@@H](CCC(=O)O)C(=O)O [AVPX12AQKSE]

Ki (XIAP-BIR3 [1]; [12]): 1.2 µM
Molecule: CC(C)[C@H](NC(=O)[C@H](C)N)C(=O)N1CCC[C@H]1C(=O)NCCc1cccc(C(F)(F)F)c1 [AVPX26]

Ki (XIAP-BIR3 [1]; [12]): 0.32 µM
Molecule: CCOc1ccccc1CCNC(=O)[C@@H]1CCCN1C(=O)[C@@H](NC(=O)[C@H](C)N)C(C)C [AVPX40]

Ki (XIAP-BIR2 [3]): 15 µM | Ki (XIAP-BIR3 [1]): > 64 µM | Ki (ML-IAP-BIR [2]): 4.4 µM
Molecule: CC(C)[C@H](NC(=O)[C@H](C)NC(=O)[C@@H](NC(=O)[C@@H](NC(=O)[C@H](CCC(=O)O)NC(=O)[C@H](C)N)C(C)C)C(C)C)C(=O)N[C@@H](CCCCN)C(=O)N[C@@H](CO)C(=O)N[C@@H](CCC(=O)O)C(=O)O

Ki (XIAP-BIR2 [3]; [12]): 6.5 µM | Ki (XIAP-BIR3 [1]; [12]): 0.22 µM
Molecule: CC(C)[C@H](NC(=O)[C@H](C)N)C(=O)N1CCC[C@H]1C(=O)N[C@@H](Cc1ccccc1)C(=O)O [AVPF]

Ki (XIAP-BIR3 [1]; [12]): 1.1 µM
Molecule: CCOc1cccc(CCNC(=O)[C@@H]2CCCN2C(=O)[C@@H](NC(=O)[C@H](C)N)C(C)C)c1 [AVPX34]

Ki (XIAP-BIR3 [1]; [12]): 7.2 µM
Molecule: CC(C)[C@H](NC(=O)[C@H](C)N)C(=O)N1CCC[C@H]1C(=O)N[C@@H](CO)[C@@H](O)c1ccccc1 [AVPX25]

specificity for ML-IAP-BIR relative to XIAP-BIR3, in words (ML-IAP-BIR [2]): improved specificity
Molecule: CC(C)[C@H](NC(=O)[C@H](C)N)C(=O)N1CCC[C@H]1C(=O)N[C@@H]1C[C@H]1c1ccccc1 [AVPX28a]

specificity for ML-IAP-BIR relative to XIAP-BIR3, in words (ML-IAP-BIR [2]): improved specificity
Molecule: CC(NC(=O)[C@@H]1CCCN1C(=O)[C@@H](NC(=O)[C@H](C)N)C(C)C)C(O)c1ccccc1 (single isomer, unassigned) [AVPX29]

Ki (ML-IAP-BIR [4]): 4.4 µM | Ki (XIAP-BIR2 [5]): 15 µM
Molecule: AEVVAVKSE

Kd (XIAP-BIR3 [6]): 0.11 µM | Kd (ML-IAP-BIR [7]): 0.038 µM
B1: AVPFAK(5-FAM)K (peptide)
peptide: AVPFAKK
modifications: 5-carboxyfluorescein (5-FAM) on Lys 6
notes: Fluorescence polarization probe; also called Hid-FAM; 5-carboxyfluorescein-conjugated Hid peptide

Ki (XIAP-BIR3 [8]): 0.39 µM | Ki (ML-IAP-BIR [9]): 0.16 µM | Ki (XIAP-BIR2 [10]): 14.7 µM | Ki (XIAP-BIR3 [11]): 0.39 µM | Ki (ML-IAP-BIR [4]): 0.16 µM | Ki (XIAP-BIR2 [5]): 14.7 µM
Molecule: AVPFAVKSE

Ki (XIAP-BIR2 [10]): 53.4 µM
Molecule: ADPIAQKSE

Ki (ML-IAP-BIR [9]): 1.7 µM
Molecule: ALPIAQKSE

Ki (XIAP-BIR3 [8]): 1.8 µM
Molecule: AMPIAQKSE

Ki (ML-IAP-BIR [9]): 1.9 µM | Ki (XIAP-BIR2 [10]): 83.9 µM
Molecule: AKPIAQKSE

Ki (XIAP-BIR2 [10]): 45.8 µM
Molecule: ATPIAQKSE

Ki (ML-IAP-BIR [9]): 23.9 µM
Molecule: AGPIAQKSE

Ki (ML-IAP-BIR [9]): 1.6 µM | Ki (XIAP-BIR2 [10]): 26.7 µM
Molecule: AYPIAQKSE

Ki (XIAP-BIR2 [10]): 38.1 µM
Molecule: AFPIAQKSE

Ki (ML-IAP-BIR [9]): 1.9 µM | Ki (XIAP-BIR2 [10]): 45.8 µM
Molecule: AWPIAQKSE

Ki (ML-IAP-BIR [9]): 3.5 µM | Ki (XIAP-BIR2 [10]): 44.2 µM
Molecule: AVIIAQKSE

Ki (ML-IAP-BIR [9]): 3.5 µM | Ki (XIAP-BIR2 [10]): 83.9 µM
Molecule: AVLIAQKSE

Ki (XIAP-BIR2 [10]): 38.6 µM
Molecule: AVVIAQKSE

Ki (ML-IAP-BIR [9]): 0.73 µM | Ki (XIAP-BIR2 [10]): 68.7 µM
Molecule: ARPIAQKSE

Ki (ML-IAP-BIR [9]): 2.4 µM | Ki (XIAP-BIR2 [10]): 38.1 µM
Molecule: AHPIAQKSE

Ki (XIAP-BIR2 [10]): 16.9 µM
Molecule: AVPYAQKSE

Ki (XIAP-BIR2 [10]): 38.1 µM
Molecule: ASPIAQKSE

Ki (XIAP-BIR2 [10]): 68.7 µM
Molecule: ANPIAQKSE
